Earlier results, collected in PMC11170107, “Development of a new hazard scoring system in primary neuronal cell cultures for drug-induced acute neuronal toxicity identification in early drug discovery” (Frontiers in Pharmacology, 2024).

Settings: ref National library of medicine, Daylimed; cited from earlier work

| Compound | FDA prescription information at therapeutic dose (Convulsion/ Seizure/Lower the seizure threshold/withdrawal) |
| --- | --- |
| COc1c(N2C[C@@H]3CCCN[C@@H]3C2)c(F)cc2c(=O)c(C(=O)O)cn(C3CC3)c12 [Moxifloxacin] | On label |
| CC(N)Cc1ccccc1 (centres unmarked) [Amphetamine] | On label |
